Values of other authors in PMC9222203, “A Robust Assay to Monitor Ataxin-3 Amyloid Fibril Assembly” (Cells, 2022).

By UniProt entry, the sequences of proteins in these tests, tags left out. Where a name states a change or a piece, a line headed by the entry shows the natural chain unless it says otherwise.
UniProt P54252: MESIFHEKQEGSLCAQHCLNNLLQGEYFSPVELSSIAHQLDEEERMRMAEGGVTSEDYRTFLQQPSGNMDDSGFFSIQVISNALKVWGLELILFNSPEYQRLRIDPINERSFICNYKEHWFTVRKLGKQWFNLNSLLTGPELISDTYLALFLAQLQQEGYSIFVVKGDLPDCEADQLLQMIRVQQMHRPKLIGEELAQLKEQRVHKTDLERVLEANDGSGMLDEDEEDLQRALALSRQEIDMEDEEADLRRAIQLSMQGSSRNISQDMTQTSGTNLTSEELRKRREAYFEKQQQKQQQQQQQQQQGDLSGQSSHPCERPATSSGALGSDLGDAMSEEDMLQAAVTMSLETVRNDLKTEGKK

Target: Ataxin-3 13Q (Homo sapiens) (UniProt P54252)
Assay: biophysical aggregation model
Settings: cited from earlier work

Ataxin-3 13Q (from UniProt P54252)
pKd: 5.34

pKd: −log10 of the molar value.
